{"sequences": {"note": "Chains of the proteins cited; added tags and fusions are not shown.", "UniProt P25103, whole entry": "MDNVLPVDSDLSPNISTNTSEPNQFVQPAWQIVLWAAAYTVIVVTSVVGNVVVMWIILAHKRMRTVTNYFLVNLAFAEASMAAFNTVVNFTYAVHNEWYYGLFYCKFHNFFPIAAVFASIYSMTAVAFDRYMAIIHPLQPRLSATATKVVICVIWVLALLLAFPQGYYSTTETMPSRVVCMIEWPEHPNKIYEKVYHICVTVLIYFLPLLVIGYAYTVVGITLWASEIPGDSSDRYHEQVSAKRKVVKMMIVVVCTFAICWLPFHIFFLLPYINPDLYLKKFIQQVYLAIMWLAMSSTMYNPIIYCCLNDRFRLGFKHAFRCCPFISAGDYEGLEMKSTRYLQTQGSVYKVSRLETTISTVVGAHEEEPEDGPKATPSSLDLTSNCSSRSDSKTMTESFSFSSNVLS"}, "source": "patent US20190359686A1", "about": "(INNOVATIVE TECHNOLOGIES IN BIOLOGICAL SYSTEMS SL, published 2019)", "target": "Tachykinin receptor 1 (NK1) (UniProt P25103)", "assay": "cell-based or functional assay", "data": [{"substance": "Substance P (from UniProt P20366 58-68) (peptide)", "values": [{"measurement": "Ec50, Red ß-ARRNomad biosensor change of localization (image assay, BD Pathway 855), 24 h", "result": 2.99, "unit": "nM"}, {"measurement": "Ec50, increase in fluorescence of Red ß-ARRNomad biosensor (Synergy 2 microplate reader), 24 h", "result": 5.2, "unit": "nM"}]}]}
